A selection: hits, their analogues and other compounds. The true share with any hit is near 3.7%.
ClpP mod: qHTS Assay for Activators of ClpP. ATP-dependent Clp protease proteolytic subunit (Bacillus subtilis (strain 168)), P80244. purified B. subtilis ClpP, FRET peptide cleavage, 20 min. Potency, µM (doses to about 57.5 µM), for inactives: at the top dose activity change, negative = active. 340,000 compounds, 1.9% hits; active = well fitted falling curve with a large enough effect; inconclusive = small, poorly fitted or top-dose-only effect; inactive = no such curve, though single readings can be large or run the other way; note: potency is the fitted concentration of half-maximal effect; the source files actives as falling curves though it sought activators and does not explain the sign; nearly all actives have a fitted effect of over 65% in size
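FRET quenching reversal measured ClpP activation: 10 microg/mL B. subtilis ClpP at pH 8 with the FRET-FV decapeptide, read at 430 nm after 320 nm excitation. The 20-min minus 0-min signal was scaled between DMSO/no-enzyme wells and ADEP (5.8 microM final).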
miR-21 FLuc: miR-21 reporter, rising signal. HeLa miR-21 FLuc reporter, luciferase, 48 h. Potency, µM (titrated, usually from 38.3 µM), without a hit: at the top dose reporter change, positive = more light. 340,000 tested, under 10 active. AID 2288; active = well fitted rising curve with a large enough effect; inconclusive = small, poorly fitted or top-dose-only effect; inactive = no such curve, though single readings can be large or run the other way;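 also: % of control where 0% means no effect; miR-21 action dims this reporter so a rising signal means less miR-21 action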
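Using DMEM plus 10% FBS, HeLa miR-21-FLuc cells are incubated with test compounds (final up to about 40uM) for 48 hours; firefly luciferase signal is then imaged following reagent-mediated lysis.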
IL2 activator: IL-2 activation. activation, % (series mostly up to about 46 µM). 360,000 compounds, 0.065% hits. AID 652025. IL-2 activation reporter assay, cell-based qHTS; stimulated with anti-CD3/CD4/CD28 beads; in transgenic mouse T cells; in the data active = activation above about 50%; inconclusive = mostly about 30% to 49%; note: 0% is about no effect
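Using fluorescent plate cytometry, EGFP and DsRed are detected in transgenic mouse T cells stimulated 18 h at 37 degrees C with antibody-coated beads after 60 min compound pretreatment.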
Nrf2 activator: activates Nrf2 signaling; AREc32 ARE-luciferase reporter (MCF7-derived line), luminescence, 24 h; Potency, µM (highest dose often 46.1 µM), inactives show at the highest dose activation, hits mostly activators; 410,000 compounds, 0.31% hits; AID 624171; note: potency is the fitted concentration of half-maximal effect; % of control where 0% means no effect; nearly all actives have a fitted effect of over 65% in size
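Reporter line AREc32 (ARE-Fluc), seeded overnight in OPTI-MEM with 5% FBS; compound pin-transferred, 24 hr at 37 deg C, 5% CO2; luminescent read-out.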
Nrf2 block: blocks Nrf2 signaling | A549 ARE-Fluc reporter, luciferase luminescence, 18-24 h | Potency, µM (titrated, usually from 46 µM), without a hit: at the highest dose activity change, negative = inhibition, hits mostly inhibitors | 360,000 compounds, 2.1% hits | AID 504444; note: potency is the fitted concentration of half-maximal effect; % is set by controls: 0 for no effect and ±100 for the full control effect; nearly all actives have a fitted effect of over 60% in size
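Quantitative HTS in A549 cells stably bearing an antioxidant response element-firefly luciferase construct. Inhibition of Nrf2-driven transcription was scored by luminescence after 18-24 h of compound exposure at 37 °C.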
A549 tox-1: counter-screen for Nrf2 inhibitors: cytotoxicity in A549 cells | 390,000 compounds, 0.16% hits | AID 504648 | A549 ARE-Fluc cells, CellTiter-Fluor viability, 18-24 h | Potency, µM (top dose mostly 46 µM), inactives show top-dose activity change, negative = cytotoxicity, usual class: inhibitors; note: potency is the fitted concentration of half-maximal effect; % is set by controls: 0 for no effect and ±100 for the full control effect
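A549 ARE_Fluc cells in 5% FBS OPTI-MEM were exposed to compounds in concentration-response for 18-24 h at 37 deg C. Viability was read by CellTiter-Fluor fluorescence (Ex 405/Em 525) after 30 min, before the luciferase read.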
FLuc enzyme inh: firefly luciferase inhibition, Nrf2 hit validation | shares compounds with Nrf2 block | purified firefly luciferase, luminescence inhibition | Potency, µM (titrated, usually from 57.5 µM), for inactives: at the top dose activity change, negative = inhibition, usual class: inhibitors | 1,400 compounds, 4% hits; note: potency is the fitted concentration of half-maximal effect; % is set by controls: 0 for no effect and ±100 for the full control effect; nearly all actives have a fitted effect of over 65% in size
A549 tox-2: A549 cytotoxicity, Nrf2 inhibitor counterscreen | shares compounds with Nrf2 block | A549 ARE-Fluc cells, cytotoxicity counterscreen | Potency, µM (top dose mostly 46.1 µM), inactives show top-dose activity change, negative = cytotoxicity, usual class: inhibitors | 1,400 compounds, 2% hits;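 note: potency is the fitted concentration of half-maximal effect; cells exposed to compounds for 18 to 24 hours; % is set by controls: 0 for no effect and ±100 for the full control effect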
ARE-Fluc inh: reduces Nrf2 ARE reporter signal in A549 cells; Potency, µM (doses to about 46.1 µM), for the others: at the highest dose activity change, negative = inhibition, actives largely listed as inhibitors; shares compounds with Nrf2 block; AID 720524; 1,400 compounds, 74% hits; A549 ARE-firefly luciferase reporter, luminescence; note: potency is the fitted concentration of half-maximal effect; % is set by controls: 0 for no effect and ±100 for the full control effect; nearly all actives have a fitted effect of over 65% in size
An asterisk follows results filed as active; ? = inconclusive; nt = not tested or not shown. Unless noted, calls come from the whole dose curve; as a rule, active = well fitted curve in the direction sought with a large enough effect; inconclusive = small, poorly fitted or top-dose-only effect, or another doubt; inactive = no such curve, though single readings can be large; an effect the other way counts as inactive or inconclusive.

The chains behind the UniProt entries cited, without tags or fusion partners.
ATP-dependent Clp protease proteolytic subunit (Bacillus subtilis (strain 168)), P80244, UniProt P80244, whole entry, looked up: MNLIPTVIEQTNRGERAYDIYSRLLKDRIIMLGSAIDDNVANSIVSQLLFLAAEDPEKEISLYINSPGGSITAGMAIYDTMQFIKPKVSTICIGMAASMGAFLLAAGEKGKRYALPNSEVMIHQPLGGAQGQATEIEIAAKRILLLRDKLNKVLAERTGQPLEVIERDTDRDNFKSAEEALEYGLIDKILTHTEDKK

1: CCN(CC)S(=O)(=O)c1ccc(NC(=O)c2ccc(N3CCCC3=O)cc2)cc1
2: Cc1ccc(NS(=O)(=O)c2ccc(C(=O)NC3CCN(Cc4ccccc4)CC3)cc2)cc1
3: CCN(CC)S(=O)(=O)c1ccc(OC)c(NC(=O)c2ccc(N3CCCC3=O)cc2)c1
4: O=C(Nc1ccc2c(c1)OCCO2)c1ccc(Cl)c(S(=O)(=O)N2CCOCC2)c1
5: O=C(Nc1ccc(N2CCOCC2)cc1)c1ccc(Cl)c(S(=O)(=O)N2CCCCC2)c1

compound no. | 1 | 2 | 3 | 4 | 5
A549 tox-2 | -5% | -24% | nt | nt | -3%
Nrf2 block | 1.5µM* | 5.8µM* | -1% | -13% | 4.1µM*
ClpP mod | -1% | -2% | 1% | 1% | 9%
miR-21 FLuc | nt | nt | nt | 4% | nt
FLuc enzyme inh | -1% | 2% | nt | nt | -2%
IL2 activator | 0 | -6 | 1 | -4 | 0
ARE-Fluc inh | 7.3µM* | 7.3µM* | nt | nt | 5.2µM*
Nrf2 activator | 0% | 5% | 0% | 1% | 0%
A549 tox-1 | -16% | ? | -7% | -14% | -7%

6: C=CC[n+]1ccc(/C=C2\C=Cc3cc(C)ccc3N2CC)c2ccccc21
7: C=CC[n+]1ccc2ccccc2c1C
8: Cc1cc(C)cc(C(=O)NC(=S)Nc2ccc(-c3cc4ccccc4oc3=O)cc2)c1
9: Cc1cc(NC(=O)c2cc(Cl)ccc2Cl)ccc1-c1cc2ccccc2oc1=O
10: CC(=O)c1nnn(-c2ccc(C)cc2Cl)c1C

compound no. | 6 | 7 | 8 | 9 | 10
A549 tox-2 | ? | nt | -19% | 3% | nt
Nrf2 block | 7.3µM* | 1% | 3.7µM* | ? | ?
ClpP mod | 0% | nt | 33% | 11µM* | 1%
miR-21 FLuc | ? | -1% | 21% | 3% | 1%
FLuc enzyme inh | ? | nt | -7% | -4% | nt
IL2 activator | -1 | -1 | 27 | nt | nt
ARE-Fluc inh | nt | nt | ? | 5% | nt
Nrf2 activator | -4% | 0% | -3% | -1% | 0%
A549 tox-1 | ? | 1% | 1% | -5% | 2%

11: Cc1cc(C2=NNC(=NC3CC3)SC2)c(C)n1-c1ccccc1F
12: O=C(Oc1ccccc1N1C(=O)C2CCCCC2C1=O)c1ccc(Cl)cc1 (stereo unspecified)
13: O=C(Oc1ccccc1N1C(=O)C2CCCCC2C1=O)c1ccccc1F (stereo unspecified)
14: COC(=O)c1ccc(NC(=O)N2CCN(Cc3cc(=O)n4nc(-c5ccc(C)cc5)sc4n3)CC2)cc1
15: Cc1cc(/C=C2/SC(=S)N(c3ccc([N+](=O)[O-])cc3)C2=O)c(C)n1-c1cccnc1

compound no. | 11 | 12 | 13 | 14 | 15
A549 tox-2 | -10% | -1% | nt | nt | -23%
Nrf2 block | 0.92µM* | 4.6µM* | -1% | nt | 6.5µM*
ClpP mod | -3% | -3% | -1% | -3% | -1%
miR-21 FLuc | ? | -14% | -12% | -2% | 7%
FLuc enzyme inh | 3% | -1% | nt | nt | -18%
IL2 activator | -3 | -3 | 2 | nt | 1
ARE-Fluc inh | nt | 6.5µM* | nt | nt | nt
Nrf2 activator | -3% | -1% | 5% | -1% | 3%
A549 tox-1 | -4% | -3% | -7% | 1% | ?

16: Cc1cc(/C=C2/SC(=S)N(c3cccc(Cl)c3)C2=O)c(C)n1-c1cccnc1
17: CCOc1ccc(CNC(=O)c2ccc3c(c2)nc2n3CCC(C)C2)cc1OC (stereo unspecified)
18: COc1ccc(S(=O)(=O)Nc2ccc(Cc3ccncc3)cc2)cc1OC
19: Cc1ccc(C)c(OCc2ccc(C(=O)Nc3ccc([N+](=O)[O-])cn3)o2)c1
20: CC(NC(=O)c1ccc(NC(=O)c2nsc3ccccc23)cc1)c1ccccc1 (stereo unspecified)

compound no. | 16 | 17 | 18 | 19 | 20
A549 tox-2 | nt | nt | 4% | -3% | nt
Nrf2 block | ? | nt | 6.5µM* | 2.9µM* | nt
ClpP mod | 1% | 1% | -3% | 1% | 23%
miR-21 FLuc | nt | 2% | 18% | nt | -33%
FLuc enzyme inh | nt | nt | 2% | 3% | nt
IL2 activator | -2 | nt | -3 | 1 | nt
ARE-Fluc inh | nt | nt | ? | 5.2µM* | nt
Nrf2 activator | 4% | 0% | 3% | 0% | -1%
A549 tox-1 | -15% | 1% | -17% | -3% | ?

3 records drawn at random from those above:
20: CC(NC(=O)c1ccc(NC(=O)c2nsc3ccccc23)cc1)c1ccccc1 (stereo unspecified)
19: Cc1ccc(C)c(OCc2ccc(C(=O)Nc3ccc([N+](=O)[O-])cn3)o2)c1
13: O=C(Oc1ccccc1N1C(=O)C2CCCCC2C1=O)c1ccccc1F (stereo unspecified)

compound no. | 20 | 19 | 13
A549 tox-2 | nt | -3% | nt
Nrf2 block | nt | 2.9µM* | -1%
ClpP mod | 23% | 1% | -1%
miR-21 FLuc | -33% | nt | -12%
FLuc enzyme inh | nt | 3% | nt
IL2 activator | nt | 1 | 2
ARE-Fluc inh | nt | 5.2µM* | nt
Nrf2 activator | -1% | 0% | 5%
A549 tox-1 | ? | -3% | -7%

The list goes on.
21: CCC[n+]1c(/C=C/c2c(OC)cc(OC)cc2OC)ccc2ccccc21
22: CCCC[n+]1c2ccccc2cc2ccccc21
23: CCC[n+]1c2ccccc2cc2ccccc21
24: CCCC[n+]1c(/C=C/c2c(OC)cc(OC)cc2OC)ccc2ccccc21
25: COc1cc(OC)c(/C=C/c2ccc3ccccc3[n+]2C)c(OC)c1

compound no. | 21 | 22 | 23 | 24 | 25
A549 tox-2 | 7.3µM* | nt | nt | ? | ?
Nrf2 block | nt | -28% | 19% | nt | nt
ClpP mod | 1% | 5% | nt | -3% | 0%
miR-21 FLuc | nt | 25% | ? | nt | nt
FLuc enzyme inh | -2% | nt | nt | 2% | 1%
IL2 activator | nt | -3 | 0 | nt | nt
ARE-Fluc inh | 2.3µM* | nt | nt | 1.6µM* | 1.6µM*
Nrf2 activator | nt | 3% | 8% | nt | nt
A549 tox-1 | nt | 7% | 3% | nt | nt

26: NC(=O)CSc1oc(-c2cccs2)nc1S(=O)(=O)c1ccc(Br)cc1
27: CC(C)(C)c1ccc(C(=O)NCCc2csc3nc(-c4ccccc4F)nn23)cc1
28: CC1CCc2nc(-c3cc4ccc(O)cc4oc3=O)sc2C1 (stereo unspecified)
29: O=c1oc2cc(O)ccc2cc1-c1nc2ccccc2o1
30: CCOc1cc(C(=O)NCCc2csc3nc(-c4ccccc4F)nn23)cc(OCC)c1OCC

compound no. | 26 | 27 | 28 | 29 | 30
A549 tox-2 | nt | nt | 191% | nt | nt
Nrf2 block | ? | nt | 2.3µM* | nt | nt
ClpP mod | 0% | 0% | 5% | 5% | -3%
miR-21 FLuc | -2% | 7% | nt | nt | 1%
FLuc enzyme inh | nt | nt | 0.038µM* | nt | nt
IL2 activator | nt | nt | nt | 3 | nt
ARE-Fluc inh | nt | nt | 18µM* | nt | nt
Nrf2 activator | 0% | 7% | nt | 6% | 0%
A549 tox-1 | 8% | 0% | ? | nt | 3%

31: COc1ccc(N2CCN(C(=O)CSc3nnc4n3C(C)(C)Cc3ccccc3-4)CC2)cc1
32: Cc1ccc(Cl)cc1N1CCN(C(=O)CSc2nnc3n2C(C)(C)Cc2ccccc2-3)CC1
33: CCN(CC)c1ccc(/C=C/c2ccncc2)cc1
34: CN(C)c1ccc(/C=C/c2ccncc2)cc1
35: Nc1nc(-c2ccco2)nn1C(=O)c1ccc(Cl)cc1
36: c1csc(CNc2ncnc3sccc23)c1
37: Cc1cccc(N2CCN(C(=O)C3CCC(CNS(=O)(=O)c4ccc(Br)s4)CC3)CC2)c1C (stereo unspecified)

compound no. | 31 | 32 | 33 | 34 | 35 | 36 | 37
A549 tox-2 | nt | ? | 6.5µM* | nt | 0% | 1% | nt
Nrf2 block | ? | 6.5µM* | nt | 2% | 7.3µM* | 5.8µM* | ?
ClpP mod | 0% | -4% | -1% | -2% | -9% | 1% | 0%
miR-21 FLuc | 17% | 15% | nt | -50% | -8% | nt | 1%
FLuc enzyme inh | nt | 0% | -14% | nt | 1% | 1% | nt
IL2 activator | -2 | -2 | nt | 1 | 0 | -2 | nt
ARE-Fluc inh | nt | 6.5µM* | 1.5µM* | nt | 4.1µM* | 7.3µM* | nt
Nrf2 activator | 0% | 0% | nt | 5% | -1% | 13% | 0%
A549 tox-1 | -7% | ? | nt | -17% | -7% | -17% | 0%

Compound activity from PubChem.
